This is an account of results in IntAct's records for PubMed 19166854.

Sequences and labels used below:
B1: RAC-alpha serine/threonine-protein kinase (Homo sapiens), P31749 (parent)
chain: MSDVAIVKEGWLHKRGEYIKTWRPRYFLLKNDGTFIGYKERPQDVDQREAPLNNFSVAQCQLMKTERPRPNTFIIRCLQWTTVIERTFHVETPEEREEWTTAIQTVADGLKKQEEEEMDFRSGSPSDNSGAEEMEVSLAKPKHRVTMNEFEYLKLLGKGTFGKVILVKEKATGRYYAMKILKKEVIVAKDEVAHTLTENRVLQNSRHPFLTALKYSFQTHDRLCFVMEYANGGELFFHLSRERVFSEDRARFYGAEIVSALDYLHSEKNVVYRDLKLENLMLDKDGHIKITDFGLCKEGIKDGATMKTFCGTPEYLAPEVLEDNDYGRAVDWWGLGVVMYEMMCGRLPFYNQDHEKLFELILMEEIRFPRTLGPEAKSLLSGLLKKDPKQRLGGGSEDAKEIMQHRFFAGIVWQHVYEKKLSPPFKPQVTSETDTRYFDEEFTAQMITITPPDQDDSMECVDSERRPHFPQFSYSASGTA

In this test the parent is B1. Conditions: with mdm2_human MDM2.
Take MSDVAIVKEGWLHKRGEYIKTWRPRYFLLKNDGTFIGYKERPQDVDQREAPLNNFSVAQCQLMKTERPRPNTFIIRCLQWTTVIERTFHVETPEEREEWTTAIQTVADGLKKQEEEEMDFRSGSPSDNSGAEEMEVSLAKPKHRVTMNEFEYLKLLGKGTFGKVILVKEKATGRYYAMKILKKEVIVAKDEVAHTLTENRVLQNSRHPFLTALKYSFQTHDRLCFVMEYANGGELFFHLSRERVFSEDRARFYGAEIVSALDYLHSEKNVVYRDLKLENLMLDKDGHIKITDFGLCKEGIKDGATMKTFCGTPEYLAPEVLEDNDYGRAVDWWGLGVVMYEMMCGRLPFYNQDHEKLFELILMEEIRFPRTLGPEAKSLLSGLLKKDPKQRLGGGSEDAKEIMQHRFFAGIVWQHVYEKKLSPPFKPQVTSETDTRYFDEEFTAQMITITPPDQDDSMECVDSERRPHFPQFDYSASGTA [S473D]: the “effect of a mutation on the interaction” value is given as “increasing interaction”.
